{"source": "patent US20240398786A1", "about": "“7-ETHYL-10-HYDROXY-CAMPTOTHECIN (SN-38) ALBUMIN CONJUGATES FOR TREATMENT OF CANCERS” (Ohio State Innovation Foundation, priority 2021, published 2024)", "key": {"[1]": {"tested_on": "MIA-PaCa-2 (MP2) shCtrl/shCav-1 cells", "assay": "Uptake by direct fluorescence in MP2 shCtrl vs shCav-1 cells", "assay_type": "cell-based", "conditions": "FITC-HSA (0.01%) pulsed 1 h", "description": "(§1) Cells were plated on coverslips and treated with or without FITC-HAS, SN-38, or SSH20. Cells were pulsed either 1 hour with 0.1% FITC-HAS or 2 hours with 250 nM SN/38/SSH20 prior to fixation. When applicable, in order to remove membrane-bound albumin, two acid/salt washes were performed with 0.1M glycine and 0.1M NaCl, pH 3.02 for 2 minutes each, followed by two washes with phosphate buffer saline (PBS). Cells were then fixed with 2% paraformaldehyde for 15 minutes at room temperature and washed 1×PBS 2 times for 5 minutes each. Cells were incubated with 0.1% Triton-x-100 for 10 min on ice to permeabilize, then washed twice with 1×PBS prior to blocking with 3% bovine serum albumin in 1×PBS overnight at 4° C. In a humidified chamber, primary antibodies (1:50) in blocking buffer were added and incubated for 1 hour at 4° C., followed by three 10 minute rinses with blocking buffer. Secondary antibody (conjugated to Alexa Fluor 488, 1:1000) was added along with DAPI for 1 hour at room temperature. Cells were then rinsed, and coverslips were mounted onto slides and then sealed. Cells were then imaged with a confocal microscope with locked settings across the control and respective experimental conditions. For auto-fluorescence experiments with SN-30 and SSH20, images were taken at an emission wavelength of 543 nm. ImageJ was used to measure the fluorescence intensity of individual cells."}, "[2]": {"tested_on": "H23 shCtrl/shCav-1 cells", "assay": "Uptake by direct fluorescence in H23 shCtrl vs shCav-1 cells", "assay_type": "cell-based", "conditions": "FITC-HSA (0.01%) pulsed 1 h", "description": "as §1"}}, "data": [{"substance": "FITC-HSA: FITC-labeled human serum albumin used to measure albumin uptake", "values": [{"measurement": "albumin uptake in shCav-1 versus shCtrl cells (FITC fluorescence intensity)", "setting": "[1]", "value": "significant reduction of albumin uptake"}, {"measurement": "albumin uptake in shCav-1 versus shCtrl cells (FITC fluorescence intensity)", "setting": "[2]", "value": "significant reduction of albumin uptake"}]}]}
